This note sets out measurements from US12679848B2, “Plasma kallikrein inhibitors” (Merck Sharp & Dohme LLC, priority 2020, dated 2026).

Protein sequences, listed by entry. Tags and fused reporters are not part of them. Residues count along the entry.
UniProt P03952, 391-638 limits assumed: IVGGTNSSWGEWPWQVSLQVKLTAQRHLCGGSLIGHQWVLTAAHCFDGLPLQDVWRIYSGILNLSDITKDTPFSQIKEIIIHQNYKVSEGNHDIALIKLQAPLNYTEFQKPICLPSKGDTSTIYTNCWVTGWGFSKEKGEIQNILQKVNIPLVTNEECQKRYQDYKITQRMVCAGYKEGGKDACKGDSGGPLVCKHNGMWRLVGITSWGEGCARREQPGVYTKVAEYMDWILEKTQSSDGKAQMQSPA
UniProt P03952, 20-390 partner limits assumed: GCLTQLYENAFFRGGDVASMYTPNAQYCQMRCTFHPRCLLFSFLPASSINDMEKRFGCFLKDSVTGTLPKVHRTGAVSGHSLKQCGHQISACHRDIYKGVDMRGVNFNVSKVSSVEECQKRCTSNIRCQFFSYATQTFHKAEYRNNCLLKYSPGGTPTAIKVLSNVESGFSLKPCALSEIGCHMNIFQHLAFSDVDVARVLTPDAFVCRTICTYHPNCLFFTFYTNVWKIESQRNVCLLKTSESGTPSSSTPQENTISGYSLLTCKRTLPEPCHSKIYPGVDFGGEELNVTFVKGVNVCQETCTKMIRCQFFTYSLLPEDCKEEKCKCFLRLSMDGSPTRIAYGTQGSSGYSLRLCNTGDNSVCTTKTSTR
UniProt P03951, 388-625 limits assumed: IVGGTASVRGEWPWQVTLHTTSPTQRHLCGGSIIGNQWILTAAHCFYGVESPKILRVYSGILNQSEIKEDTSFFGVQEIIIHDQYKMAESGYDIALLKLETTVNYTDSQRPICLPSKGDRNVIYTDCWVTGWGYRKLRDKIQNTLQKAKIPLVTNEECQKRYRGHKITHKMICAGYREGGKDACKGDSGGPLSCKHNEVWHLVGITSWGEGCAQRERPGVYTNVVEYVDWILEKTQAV
UniProt P03951, 19-387 partner limits assumed: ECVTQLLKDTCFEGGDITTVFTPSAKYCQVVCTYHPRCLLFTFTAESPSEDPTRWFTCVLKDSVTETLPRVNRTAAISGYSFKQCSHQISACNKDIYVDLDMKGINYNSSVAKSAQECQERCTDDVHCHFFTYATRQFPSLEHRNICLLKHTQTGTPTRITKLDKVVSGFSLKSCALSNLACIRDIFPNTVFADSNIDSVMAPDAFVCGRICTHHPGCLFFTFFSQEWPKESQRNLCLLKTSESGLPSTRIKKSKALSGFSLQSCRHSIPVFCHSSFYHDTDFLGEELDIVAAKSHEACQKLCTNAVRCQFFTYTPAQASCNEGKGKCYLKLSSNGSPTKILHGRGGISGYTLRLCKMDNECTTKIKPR

pIC50: −log10 of the molar value.

Test [1] concerns the target Human plasma kallikrein (Homo sapiens, UniProt P03952). In words: Plasma Kallikrein Assay. Particulars: read-out: PKal IC50; purified Human plasma kallikrein 0.5 nM, substrate Acetyl-K-P-R-AFC, HEPES pH 7.4.
The target in test [2] is human factor XIa (Homo sapiens, UniProt P03951). The experiment in a line: Factor XIa Assay. As to conditions: read-out: FXIa IC50; human factor XIa 0.04 nM, substrate GPR-AFC, 30 min pre-incubation, 25° C., pH 7.4. As for the experimental part:
The effectiveness of a compound of the present invention as an inhibitor of Coagulation factor XIa can be determined using a relevant purified serine protease, and an appropriate synthetic substrate. The rate of hydrolysis of the chromogenic or fluorogenic substrate by the relevant serine protease was measured both in the absence and presence of compounds of the present invention. Assays were conducted at rt or at 37° C. […] A decrease in the rate of fluorescence change in the presence of inhibitor is indicative of enzyme inhibition. Such methods are known to one skilled in the art. The results of this assay are expressed as the half-maximal inhibitory concentrations (IC50), or the inhibitory constant, Ki.
Compounds were pre-incubated for 30 min at 25° C. with human (0.04 nM) factor XIa in 50 mM HEPES buffer with 150 mM sodium chloride, 5 mM calcium chloride, 0.1% PEG 8000, pH 7.4. factor XIa enzymatic activity was determined by addition of the substrate glycine-proline-arginine-7-amido-4-trifluoromethylcoumarin (GPR-AFC) and measurement of the fluorescence at 400/505 nm after a 60 min incubation at 25° C. The % inhibition for each data point was calculated from the data and analyzed using the log (inhibitor) vs. response four parameters equation to determine the half-maximal inhibitory concentrations (IC50). […]

As for `Nc1c(C(=O)N2CCC[C@@]3(C2)OC(=O)Nc2ccc(Cl)c(F)c23)cnn1Cc1cccnc1` [Example 55, (R)-1'-(5-Amino-1-(pyridin-3-ylmethyl)-1H-pyrazole-4-carbonyl)-6-chloro-5-fluorospiro[benzo[d][1,3]oxazine-4,3'-piperidin]-2(1H)-one], the pIC50 in test [1] is 8.60; in test [2] it was 6.45.

As a reminder, the pIC50 is the IC50 on a negative log10 scale, so that one unit is a factor of ten.
